Results on 1 compound are retold here after patent US5021413A (priority 1988, dated 1991).

Sequences of proteins named here, by UniProt entry; tags and fusion partners are left off. A change or cut given only in a name is not applied to a line headed by its entry. Residues count along the entry.
UniProt A0ACM8Q262, 1-400: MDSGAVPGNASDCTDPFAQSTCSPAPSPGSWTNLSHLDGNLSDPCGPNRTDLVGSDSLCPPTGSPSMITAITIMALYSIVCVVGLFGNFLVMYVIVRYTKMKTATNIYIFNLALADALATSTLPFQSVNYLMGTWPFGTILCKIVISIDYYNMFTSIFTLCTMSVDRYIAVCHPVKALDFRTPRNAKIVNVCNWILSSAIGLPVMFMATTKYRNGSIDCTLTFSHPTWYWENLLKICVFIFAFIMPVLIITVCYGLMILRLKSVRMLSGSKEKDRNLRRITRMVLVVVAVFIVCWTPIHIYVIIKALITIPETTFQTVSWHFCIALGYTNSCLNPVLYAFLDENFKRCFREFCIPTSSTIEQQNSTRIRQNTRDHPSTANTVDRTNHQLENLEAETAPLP
UniProt P41144: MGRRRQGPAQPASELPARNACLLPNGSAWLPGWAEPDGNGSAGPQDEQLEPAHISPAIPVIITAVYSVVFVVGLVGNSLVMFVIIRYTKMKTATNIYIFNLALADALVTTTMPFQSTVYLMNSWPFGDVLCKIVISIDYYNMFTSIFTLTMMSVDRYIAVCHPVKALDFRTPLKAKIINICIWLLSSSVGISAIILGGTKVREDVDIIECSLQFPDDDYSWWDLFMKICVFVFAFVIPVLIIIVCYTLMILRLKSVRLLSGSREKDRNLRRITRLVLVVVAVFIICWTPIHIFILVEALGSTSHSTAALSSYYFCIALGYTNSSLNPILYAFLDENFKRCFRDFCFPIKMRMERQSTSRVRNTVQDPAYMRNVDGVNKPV

The target of experiment [1] is μ-receptors (Cavia porcellus, UniProt A0ACM8Q262). Particulars: read-out: Binding to opioid receptors, μ (IC50); 1 nM tritium-labelled DAGO, guinea pig brain membrane.
In experiment [2] the target is κ-receptors (Cavia porcellus, UniProt P41144). To be noted: read-out: Binding to opioid receptors, k (IC50); 0.6 nM tritium-labelled ethylketocyclazocine, 100 nM DAGO and 10 nM DADLE, 25° C., 45 minutes, guinea pig brain membrane.
Experiment [3] deals with p-phenylquinone-induced writhing in mice. The experiment in a line: p-Phenylquinone-induced writhing in mice (analgesic effect). In kind it is in vivo, mouse (male ddY mice). To be noted: s.c. In general terms: An intraperitoneal irritant provokes the stretching counted in writhing tests.

On to `CN(C(=O)Cc1ccc(Cl)c(Cl)c1)[C@@H]1CCCC[C@H]1N1CCCC1` (relative stereo), for which the 50% inhibitory concentration (IC50) stood at 0.636 µM in experiment [1] and 0.00992 µM in experiment [2]. Also, in experiment [3] (15 min before p-phenylquinone i.p., probit method), the “Analgesic effect, phenylquinone-induced writhing, ED50” value stood at 0.49 mg/kg. The “Analgesic effect, phenylquinone-induced writhing at 320 μg/kg (analgesic-effective animals/all animals)” value in experiment [3] (dose of 320 μg/kg) is listed as 2/5.

The IC50 is the concentration needed to halve the response being measured.
